Literature values as cited in patent US7179800B2 (priority 2002, dated 2007).

By UniProt entry, the sequences of proteins in these tests, tags left out.
UniProt P34972, whole entry: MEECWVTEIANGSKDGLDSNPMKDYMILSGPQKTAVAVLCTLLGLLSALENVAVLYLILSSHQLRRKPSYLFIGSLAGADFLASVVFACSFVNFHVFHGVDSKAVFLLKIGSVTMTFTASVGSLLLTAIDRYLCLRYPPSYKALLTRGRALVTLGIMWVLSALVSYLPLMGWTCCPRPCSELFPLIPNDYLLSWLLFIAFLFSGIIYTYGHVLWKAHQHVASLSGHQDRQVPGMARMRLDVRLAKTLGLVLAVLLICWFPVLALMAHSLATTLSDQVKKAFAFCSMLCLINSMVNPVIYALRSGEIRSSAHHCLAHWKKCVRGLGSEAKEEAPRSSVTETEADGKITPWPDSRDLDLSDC

Target: T1, CB2 receptor (Homo sapiens, UniProt P34972)
T1 construct: expressed in transfected cells; host or cells: CHO cells, G418-selected transfected line
Details: values from Hanu et al 1999; ligand [3H]HU-243; cited from earlier work

For `CCCCCCC(C)(C)c1cc(OC)c([C@@H]2C=C(CO)[C@@H]3C[C@H]2C3(C)C)c(OC)c1` [HU-308], which Ki is on record?
The Ki was 23 ± 4 nM.
